Source: patent US20140154728A1, “COMPOSITIONS, SYSTEMS AND METHODS BASED ON THE DIFFERENTIATION OF EPICARDIAL CELLS TO TYPICAL AND ATYPICAL FATES” (UNIVERSITY OF SOUTHERN CALIFORNIA, priority 2012, published 2014)

Test system: MEC1 cells
Test: Osteogenic differentiation of MEC1 cells, mineralized matrix by alizarin red S staining
Type: cell-based, mouse
Conditions: MEC1 cell cultures, BMP2 treatment (not shown)
From the text: The assays and associated methods and compositions are based in part on the observation that epicardial cells useable in connection with the present invention can be induced to undergo osteoblast differentiation by treatment with beta-glycerolphosphate and ascorbic acid (bGP+AA). […] The osteoblast differentiation genes AP, osterix, and BSP were induced by treatment (not shown). The outcome with primary mouse EPDCs (both embryonic and adult) was similar (FIG. 3); the extent of mineralization in induced primary cell cultures was less than with MEC1 cells, which might reflect the lesser density of cells (overt mineralization requires cells to aggregate into nodules, which is density dependent) or some heterogeneity in cellular phenotype. Despite the absence of mineralized matrix in the normal embryonic and postnatal heart, the conclusion from this analysis is that MEC1 cells and at least a prominent subset of mouse primary EPDCs are able to undergo osteoblast differentiation.

B1: BMP2: a bone-inducing factor that acts at least in part by inducing Runx2 (protein, UniProt P12643 283-396, looked up)
Bone morphogenetic protein 2: QAKHKQRKRLKSSCKRHPLYVDFSDVGWNDWIVAPPGYHAFYCHGECPFPLADHLNSTNHAIVQTLVNSVNSKIPKACCVPTELSAISMLYLDENEKVVLKNYQDMVVEGCGCR
osteogenic differentiation: nor did BMP2 treatment induce osteogenic differentiation
